# Laboratory results taken from paper PMC5773950 (British Journal of Pharmacology, 2018).
# Amino acid sequences for entries named in this document (tags omitted).
# UniProt P23975, whole entry: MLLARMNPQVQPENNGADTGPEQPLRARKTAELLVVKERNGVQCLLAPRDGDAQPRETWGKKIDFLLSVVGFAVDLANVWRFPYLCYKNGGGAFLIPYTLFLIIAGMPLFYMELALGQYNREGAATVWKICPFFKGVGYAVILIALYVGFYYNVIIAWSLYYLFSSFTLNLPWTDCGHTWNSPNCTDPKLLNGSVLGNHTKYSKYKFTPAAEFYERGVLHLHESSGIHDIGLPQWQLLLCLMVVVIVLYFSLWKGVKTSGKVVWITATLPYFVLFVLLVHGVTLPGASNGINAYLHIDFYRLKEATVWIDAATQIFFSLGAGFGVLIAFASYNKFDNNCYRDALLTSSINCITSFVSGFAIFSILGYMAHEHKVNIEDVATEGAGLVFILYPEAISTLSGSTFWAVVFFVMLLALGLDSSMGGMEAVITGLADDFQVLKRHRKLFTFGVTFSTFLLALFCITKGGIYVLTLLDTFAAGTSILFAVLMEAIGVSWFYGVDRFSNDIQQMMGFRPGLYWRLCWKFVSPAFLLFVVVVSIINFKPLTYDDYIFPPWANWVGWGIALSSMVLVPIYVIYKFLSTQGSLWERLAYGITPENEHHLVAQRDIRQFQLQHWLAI
# UniProt Q01959, whole entry: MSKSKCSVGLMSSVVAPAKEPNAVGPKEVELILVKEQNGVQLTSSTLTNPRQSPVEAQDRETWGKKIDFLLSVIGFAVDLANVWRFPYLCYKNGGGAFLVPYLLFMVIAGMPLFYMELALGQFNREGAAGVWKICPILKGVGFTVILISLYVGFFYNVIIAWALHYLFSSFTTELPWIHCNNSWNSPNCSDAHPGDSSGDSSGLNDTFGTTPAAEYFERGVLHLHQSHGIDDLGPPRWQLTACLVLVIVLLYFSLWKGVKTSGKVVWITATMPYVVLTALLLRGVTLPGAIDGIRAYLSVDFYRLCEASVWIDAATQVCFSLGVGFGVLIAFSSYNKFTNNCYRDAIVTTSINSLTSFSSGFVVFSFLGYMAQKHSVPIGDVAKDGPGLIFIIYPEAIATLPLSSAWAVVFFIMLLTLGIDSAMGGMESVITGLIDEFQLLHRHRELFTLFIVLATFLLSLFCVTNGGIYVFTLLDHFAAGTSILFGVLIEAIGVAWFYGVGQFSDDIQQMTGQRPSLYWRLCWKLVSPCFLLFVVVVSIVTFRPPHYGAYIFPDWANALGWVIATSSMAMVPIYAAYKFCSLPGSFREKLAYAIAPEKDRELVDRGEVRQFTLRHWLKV
# UniProt P31645, whole entry: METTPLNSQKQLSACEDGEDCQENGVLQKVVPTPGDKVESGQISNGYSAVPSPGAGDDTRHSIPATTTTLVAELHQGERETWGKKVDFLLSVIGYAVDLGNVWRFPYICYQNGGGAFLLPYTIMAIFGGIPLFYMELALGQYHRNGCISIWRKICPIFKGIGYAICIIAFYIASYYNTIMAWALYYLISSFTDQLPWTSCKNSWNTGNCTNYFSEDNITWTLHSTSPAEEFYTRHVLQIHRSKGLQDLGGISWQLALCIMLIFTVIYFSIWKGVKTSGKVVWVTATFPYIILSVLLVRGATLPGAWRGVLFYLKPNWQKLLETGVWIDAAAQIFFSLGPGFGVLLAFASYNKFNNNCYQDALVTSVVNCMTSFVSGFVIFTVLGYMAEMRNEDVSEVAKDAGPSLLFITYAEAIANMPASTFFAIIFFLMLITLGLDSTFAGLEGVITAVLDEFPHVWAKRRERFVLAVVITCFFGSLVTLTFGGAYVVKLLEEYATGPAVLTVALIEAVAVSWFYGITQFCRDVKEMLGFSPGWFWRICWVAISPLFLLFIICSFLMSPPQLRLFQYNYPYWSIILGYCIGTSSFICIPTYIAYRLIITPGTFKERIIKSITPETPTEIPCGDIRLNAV
# UniProt P08908, whole entry: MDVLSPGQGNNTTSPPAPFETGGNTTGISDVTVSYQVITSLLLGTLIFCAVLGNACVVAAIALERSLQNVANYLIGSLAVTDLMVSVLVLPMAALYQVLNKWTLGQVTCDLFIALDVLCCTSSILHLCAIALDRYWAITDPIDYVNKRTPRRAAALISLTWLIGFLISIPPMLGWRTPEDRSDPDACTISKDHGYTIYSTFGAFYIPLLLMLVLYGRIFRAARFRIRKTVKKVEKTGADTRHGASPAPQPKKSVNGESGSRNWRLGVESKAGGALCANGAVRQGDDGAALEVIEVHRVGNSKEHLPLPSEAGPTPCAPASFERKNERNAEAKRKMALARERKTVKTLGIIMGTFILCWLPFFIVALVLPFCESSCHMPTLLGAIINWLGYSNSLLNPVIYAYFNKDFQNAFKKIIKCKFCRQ
# UniProt P28223, whole entry: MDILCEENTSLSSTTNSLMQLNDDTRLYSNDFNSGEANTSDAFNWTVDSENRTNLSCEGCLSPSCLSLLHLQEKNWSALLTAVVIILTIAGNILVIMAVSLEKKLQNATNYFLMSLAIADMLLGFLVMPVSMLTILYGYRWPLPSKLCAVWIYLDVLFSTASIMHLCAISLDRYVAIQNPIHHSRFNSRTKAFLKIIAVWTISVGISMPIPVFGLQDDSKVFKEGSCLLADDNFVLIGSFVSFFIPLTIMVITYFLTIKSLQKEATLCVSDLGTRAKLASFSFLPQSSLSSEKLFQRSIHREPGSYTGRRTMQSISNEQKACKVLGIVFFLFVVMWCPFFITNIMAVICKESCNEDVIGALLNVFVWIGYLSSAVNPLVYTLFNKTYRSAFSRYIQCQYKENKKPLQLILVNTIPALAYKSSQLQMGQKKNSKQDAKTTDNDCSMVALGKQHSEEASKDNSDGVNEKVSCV
# Experiments:
# human NET = human NET (Homo sapiens, UniProt P23975); type: cell-based; conditions: read-out: NET IC50 (95% CI)
# human DAT = human DAT (Homo sapiens, UniProt Q01959); type: cell-based; conditions: read-out: DAT IC50 (95% CI)
# human SERT = human SERT (Homo sapiens, UniProt P31645); type: cell-based; conditions: read-out: SERT IC50 (95% CI)
# 5‐HT1A receptor = 5‐HT1A receptor (Homo sapiens, UniProt P08908); conditions: read-out: 5‐HT1A Receptor binding Ki ± SD
# 5‐HT2A receptor = 5‐HT2A receptor (Homo sapiens, UniProt P28223); conditions: read-out: 5‐HT2A Receptor binding Ki ± SD
substance,measurement,setting,value
Buprenorphine,IC50,human NET,> 100 µM
same,IC50,human DAT,> 100 µM
same,IC50,human SERT,> 100 µM
same,Ki,5‐HT1A receptor,> 17 µM
same,Ki,5‐HT2A receptor,> 13 µM
